Test results reported in EP0195116A2, “Compound having antibacterial and antimycotic activities, preparation thereof and pharmaceutical compositions containing it” (ISTITUTO FARMACO BIOLOGICO RIPARI GERO S.r.l., priority 1985, dated 1986).

Settings: rat, in vivo, po

Substance: 1-{[2-(2,4-dichlorophenyl)-2-(2,4-dichlorophenyl)methoxy]ethyl}-1-pivaloyloxymethyl-lH-imidazolium chloride [RG 024]
- AUC (area under curve) values, higher than those of miconazole: more than 2.5 times
- presence / detectability of the compound over time: still present in the 8th hour
- values of the main peak, higher than for miconazole: more than 40%
